# Experimental data taken from PubChem BioAssay AID651560 (Sanford-Burnham Center for Chemical Genomics, 2012).
# Amino acid sequences for entries named in this document (tags omitted).
# UniProt P24666, whole entry: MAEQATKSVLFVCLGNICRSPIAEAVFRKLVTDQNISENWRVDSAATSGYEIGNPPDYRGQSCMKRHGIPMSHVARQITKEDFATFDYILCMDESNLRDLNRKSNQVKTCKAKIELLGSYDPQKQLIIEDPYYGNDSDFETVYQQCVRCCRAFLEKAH
# The entries are a selection whose mix differs from that of the whole data set. Activity calls are given as the source filed them.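 The calls were made as follows: active = compounds that cut the enzyme signal by at least half of the control window in the single-dose screen; inactive = the rest.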
# Biological target: Low molecular weight phosphotyrosine protein phosphatase (Homo sapiens) (UniProt P24666)
# Assay: LMPTP phosphatase inhibitors, primary screen, biochemical, fluorescence intensity, uHTS (AID 651560);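 also: plate controls were DMSO wells with enzyme plus substrate for no effect and substrate without enzyme for full effect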
# Details: recombinant LMPTP-A, OMFP fluorogenic substrate, at 20 µM, active compounds read high
# Outline: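 material = LMPTP-A | quantity = 0.625 nM enzyme | reagent = OMFP substrate, 400 µM final | buffer or medium = Bis-Tris pH 6.0, DTT, detergent | detection = endpoint fluorescence intensity from OMFP dephosphorylation | dosing = single 20 µM dose | read-out basis = % inhibition relative to no-enzyme and uninhibited control wells | control set = no-enzyme and uninhibited controls | timing = 50 min at room temperature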
row,SMILES,inhibition
1,CCC(=O)N(c1ccccc1)C1(COC)CCN(CCn2nnn(CC)c2=O)CC1,inactive: 0.31%
2,CCC(=O)N(c1ccccc1)C1(COC)CCN(CCc2cccs2)CC1,inactive: -1.04%
